Our source for the Ki values is patent US9890152B2 (Genentech, Inc., priority 2012, dated 2018).

Protein sequences, listed by entry. Tags and fused reporters are not part of them. Residues count along the entry.
UniProt P00533, 25-1210 T790M/L858R limits assumed: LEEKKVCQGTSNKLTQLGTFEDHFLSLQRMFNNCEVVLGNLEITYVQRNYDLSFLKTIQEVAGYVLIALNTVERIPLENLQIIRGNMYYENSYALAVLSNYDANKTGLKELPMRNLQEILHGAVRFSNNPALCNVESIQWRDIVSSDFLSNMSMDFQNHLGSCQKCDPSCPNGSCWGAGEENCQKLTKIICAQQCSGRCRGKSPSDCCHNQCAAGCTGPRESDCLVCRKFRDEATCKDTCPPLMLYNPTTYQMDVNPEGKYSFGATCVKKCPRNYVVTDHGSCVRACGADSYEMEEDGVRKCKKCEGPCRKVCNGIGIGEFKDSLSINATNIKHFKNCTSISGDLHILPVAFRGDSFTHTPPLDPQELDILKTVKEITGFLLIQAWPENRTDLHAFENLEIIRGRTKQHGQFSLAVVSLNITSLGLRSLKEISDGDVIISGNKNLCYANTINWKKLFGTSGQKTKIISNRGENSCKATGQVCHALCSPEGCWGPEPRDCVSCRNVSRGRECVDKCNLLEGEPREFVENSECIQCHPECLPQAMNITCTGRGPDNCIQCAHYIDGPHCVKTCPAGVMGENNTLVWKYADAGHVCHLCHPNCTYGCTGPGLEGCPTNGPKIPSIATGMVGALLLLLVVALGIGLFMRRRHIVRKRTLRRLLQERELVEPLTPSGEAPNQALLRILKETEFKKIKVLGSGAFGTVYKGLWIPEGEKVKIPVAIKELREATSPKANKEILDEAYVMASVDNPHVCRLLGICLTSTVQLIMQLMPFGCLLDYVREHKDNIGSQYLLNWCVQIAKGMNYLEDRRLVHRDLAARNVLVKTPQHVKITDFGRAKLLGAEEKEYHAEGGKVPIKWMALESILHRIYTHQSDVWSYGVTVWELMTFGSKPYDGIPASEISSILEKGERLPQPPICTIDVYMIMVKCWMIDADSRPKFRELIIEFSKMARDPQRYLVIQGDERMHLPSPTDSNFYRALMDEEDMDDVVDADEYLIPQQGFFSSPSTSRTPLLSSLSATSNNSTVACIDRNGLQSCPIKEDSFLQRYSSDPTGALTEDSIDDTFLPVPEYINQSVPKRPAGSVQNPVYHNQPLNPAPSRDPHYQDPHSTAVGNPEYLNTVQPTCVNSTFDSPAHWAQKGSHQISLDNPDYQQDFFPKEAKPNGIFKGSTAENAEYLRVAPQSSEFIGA

This assay addresses EGFR T790M L858R (Homo sapiens, UniProt P00533, L858R/T790M). The experiment in a line: biochemical. To be noted: EGFR(T790M/L858R) Ki (μM), 5 μM ATP, 30 min, room temperature; apparent Ki (Morrison) converted by Cheng-Prusoff, Km of ATP 1.3 μM.

Structures are written as SMILES.

Turning to `Cc1nc2cnc(Nc3ccnc(-c4cnn(S(=O)(=O)C(C)C)c4)n3)cc2n1C(C)C` [Example 409, 1-isopropyl-N-(2-(1-(isopropylsulfonyl)-1H-pyrazol-4-yl)pyrimidin-4-yl)-2-methyl-1H-imidazo[4,5-c]pyridin-6-amine], the Ki was 0.00195 µM.

As for `COC1CCN(c2nccc(Nc3cc4c(cn3)c(-c3cnn(CC(N)=O)c3)cn4C(C)C)n2)CC1` [Example 410, 2-(4-(1-isopropyl-6-((2-(4-methoxypiperidin-1-yl)pyrimidin-4-yl)amino)-1H-pyrrolo[3,2-c]pyridin-3-yl)-1H-pyrazol-1-yl)acetamide], the Ki was 0.00207 µM.

As for `COC1CCN(c2nccc(Nc3cc4c(cn3)c(-c3ccn(CC(N)=O)n3)cn4C(C)C)n2)CC1` [Example 411, 2-(3-(1-isopropyl-6-((2-(4-methoxypiperidin-1-yl)pyrimidin-4-yl)amino)-1H-pyrrolo[3,2-c]pyridin-3-yl)-1H-pyrazol-1-yl) acetamide], the Ki is 0.00259 µM.

Regarding `COC1CCN(c2nccc(Nc3cc4c(cn3)c(-c3cnn(CCN5CCOCC5)c3)cn4C(C)C)n2)CC1` [Example 412, 1-isopropyl-N-(2-(4-methoxypiperidin-1-yl)pyrimidin-4-yl)-3-(1-(2-morpholinoethyl)-1H-pyrazol-4-yl)-1H-pyrrolo[3,2-c] pyridin-6-amine], the Ki is 0.00307 µM.

Take `Cc1nc2cnc(Nc3ccnc(-c4cnn(CC(N)=O)c4)n3)cc2n1C(C)C` [Example 413, 2-(4-(4-((1-isopropyl-2-methyl-1H-imidazo[4,5-c]pyridin-6-yl)amino)pyrimidin-2-yl)-1H-pyrazol-1-yl)acetamide]: the Ki turned out to be 0.0774 µM.

Consider `Cc1nc2cnc(Nc3ccnc(-c4cnn(C5CN(CC(F)(F)F)C5)c4)n3)cc2n1C(C)C` [Example 414, 1-isopropyl-2-methyl-N-(2-(1-(1-(2,2,2-trifluoroethyl)azetidin-3-yl)-1H-pyrazol-4-yl)pyrimidin-4-yl)-1H-imidazo[4,5-c] pyridin-6-amine], for which the Ki is 0.19 µM.

In the case of `Cc1nc2cnc(Nc3ccnc(Nc4ccn(C)n4)n3)cc2n1C(C)C` [Example 415, N^4-(1-isopropyl-2-methyl-1H-imidazo[4,5-c]pyridin-6-yl)-N^2-(1-methyl-1H-pyrazol-3-yl)pyrimidine-2,4-diamine], the Ki amounted to 0.866 µM.

Regarding `Cc1nc2cnc(Nc3ccnc(-c4cnn(C5CNC5)c4)n3)cc2n1C(C)C` [Example 416, N-(2-(1-(azetidin-3-yl)-1H-pyrazol-4-yl)pyrimidin-4-yl)-1-isopropyl-2-methyl-1H-imidazo[4,5-c]pyridin-6-amine], the Ki is 0.152 µM.

Take `CC(C)n1c(CO)nc2cnc(Nc3ccnc(N4CCC(C)(O)CC4)n3)cc21` [Example 418, 1-(4-((2-(hydroxymethyl)-1-isopropyl-1H-imidazo[4,5-c]pyridin-6-yl)amino)pyrimidin-2-yl)-4-methylpiperidin-4-ol]: the Ki amounted to 0.0384 µM.

Turning to `Cc1nc2cnc(Nc3ccnc(NCCc4cn[nH]c4)n3)cc2n1C(C)C` [Example 420, N^2-(2-(1H-pyrazol-4-yl)ethyl)-N^4-(1-isopropyl-2-methyl-1H-imidazo[4,5-c]pyridin-6-yl)pyrimidine-2,4-diamine], the Ki amounted to 0.0302 µM.

For `COC1CCN(c2nccc(Nc3cc4c(ccn4CCS(C)(=O)=O)cn3)n2)CC1` [Example 421, N-(2-(4-methoxypiperidin-1-yl)pyrimidin-4-yl)-1-(2-(methylsulfonyl)ethyl)-1H-pyrrolo[3,2-c]pyridin-6-amine], the Ki is 0.403 µM.

As for `CSc1cn(-c2nccc(Nc3cc4c(cn3)nc(C)n4C(C)C)n2)cn1` [Example 422, 1-isopropyl-2-methyl-N-(2-(4-(methylthio)-1H-imidazol-1-yl)pyrimidin-4-yl)-1H-imidazo[4,5-c]pyridin-6-amine], the Ki stood at 0.0607 µM.

On to `Cc1nc2cnc(Nc3ccnc(-n4cnc(C(C)(C)O)c4)n3)cc2n1C(C)C` [Example 423, 2-(1-(4-((1-isopropyl-2-methyl-1H-imidazo[4,5-c]pyridin-6-yl)amino)pyrimidin-2-yl)-1H-imidazol-4-yl)propan-2-ol], for which the Ki was 0.169 µM.

As to `Cc1nc2cnc(Nc3ccnc(-c4cnn(C(C)(C)C(N)=O)c4)n3)cc2n1C(C)C` [Example 424, 2-(4-(4-((1-isopropyl-2-methyl-1H-imidazo[4,5-c]pyridin-6-yl)amino)pyrimidin-2-yl)-1H-pyrazol-1-yl)-2-methylpropanamide], the Ki stood at 0.105 µM.

For the compound `Cc1nc2cnc(Nc3ccnc(-c4cnn(C(C)C#N)c4)n3)cc2n1C(C)C` (stereo not drawn) [Example 425, 2-(4-(4-((1-isopropyl-2-methyl-1H-imidazo[4,5-c]pyridin-6-yl)amino)pyrimidin-2-yl)-1H-pyrazol-1-yl)propanenitrile], the Ki was 0.0658 µM.

For the compound `CNC(=O)C(C)(C)n1cc(-c2nccc(Nc3cc4c(cn3)nc(C)n4C(C)C)n2)cn1` [Example 426, 2-(4-(4-((1-isopropyl-2-methyl-1H-imidazo[4,5-c]pyridin-6-yl)amino)pyrimidin-2-yl)-1H-pyrazol-1-yl)-N,2-dimethylpropanamide], the Ki came out at 0.449 µM.

Regarding `Cc1nc2cnc(Nc3ccnc(N4CCC(O)C(C)(C)C4)n3)cc2n1C(C)C` (stereo not drawn) [Example 427, 1-(4-((1-isopropyl-2-methyl-1H-imidazo[4,5-c]pyridin-6-yl)amino)pyrimidin-2-yl)-3,3-dimethylpiperidin-4-ol], the Ki was 0.0249 µM.

For `Cc1nc2cnc(Nc3ccnc(N4CCC(N)C(C)(C)C4)n3)cc2n1C(C)C` (stereo not drawn) [Example 428, N-(2-(4-amino-3,3-dimethylpiperidin-1-yl)pyrimidin-4-yl)-1-isopropyl-2-methyl-1H-imidazo[4,5-c]pyridin-6-amine], the Ki turned out to be 0.639 µM.

`Cc1nc2cnc(Nc3ccnc(-c4cnn(CC5CNC5)c4)n3)cc2n1C(C)C` [Example 429, N-(2-(1-(azetidin-3-ylmethyl)-1H-pyrazol-4-yl)pyrimidin-4-yl)-1-isopropyl-2-methyl-1H-imidazo[4,5-c]pyridin-6-]: the Ki worked out at 0.22 µM.

For the compound `Cc1nc2cnc(Nc3ccnc(-c4cnn(CCCN)c4)n3)cc2n1C(C)C` [Example 430, N-(2-(1-(3-aminopropyl)-1H-pyrazol-4-yl)pyrimidin-4-yl)-1-isopropyl-2-methyl-1H-imidazo[4,5-c]pyridin-6-amine], the Ki came to 0.0398 µM.

On to `Cc1nc2cnc(Nc3ccnc(-c4cnn(CC5(C)COC5)c4)n3)cc2n1C(C)C` [Example 431, 1-isopropyl-2-methyl-N-(2-(1-((3-methyloxetan-3-yl)methyl)-1H-pyrazol-4-yl)pyrimidin-4-yl)-1H-imidazo[4,5-c]pyridin-6-amine], for which the Ki is 0.0949 µM.

Turning to `Cc1nc2cnc(Nc3ccnc(-c4cnn(C5CCS(=O)(=O)C5)c4)n3)cc2n1C(C)C` (stereo not drawn) [Example 432, 3-(4-(4-((1-isopropyl-2-methyl-1H-imidazo [4,5-c]pyridin-6-yl)amino)pyrimidin-2-yl)-1H-pyrazol-1-yl)tetrahydrothiophene 1,1-dioxide], the Ki came out at 0.342 µM.

On to `Cc1cnn(C)c1-c1cn(C(C)C)c2cc(Nc3ccnc(-c4cnn(S(=O)(=O)C5CC5)c4)n3)ncc12` [Example 434, N-(2-(1-(cyclopropylsulfonyl)-1H-pyrazol-4-yl)pyrimidin-4-yl)-3-(1,4-dimethyl-1H-pyrazol-5-yl)-1-isopropyl-1H-pyrrolo[3,2-c]pyridin-6-amine], for which the Ki was found to be 0.0674 µM.

For the compound `Cc1cc(-c2cn(C(C)C)c3cc(Nc4ccnc(-c5cnn(S(=O)(=O)C6CC6)c5)n4)ncc23)nn1CCO` [Example 435, 2-(3-(6-(2-(1-(cyclopropylsulfonyl)-1H-pyrazol-4-yl)pyrimidin-4-ylamino)-1-isopropyl-1H-pyrrolo[3,2-c]pyridin-3-yl)-5-methyl-1H-pyrazol-1-yl)ethanol], the Ki is 0.00214 µM.

For `Cc1cc(-c2cn(C(C)C)c3cc(Nc4ccnc(-c5cnn(S(=O)(=O)C6CC6)c5)n4)ncc23)n(CCO)n1` [Example 436, 2-(5-(6-(2-(1-(cyclopropylsulfonyl)-1H-pyrazol-4-yl)pyrimidin-4-ylamino)-1-isopropyl-1H-pyrrolo[3,2-c]pyridin-3-yl)-3-methyl-1H-pyrazol-1-yl)ethanol], the Ki came to 0.00126 µM.

In the case of `Cc1nn(CCO)cc1-c1cn(C(C)C)c2cc(Nc3ccnc(-c4cnn(S(=O)(=O)C5CC5)c4)n3)ncc12` [Example 437, 2-(4-(6-(2-(1-(cyclopropylsulfonyl)-1H-pyrazol-4-yl)pyrimidin-4-ylamino)-1-isopropyl-1H-pyrrolo[3,2-c]pyridin-3-yl)-3-methyl-1H-pyrazol-1-yl)ethanol], the Ki is 0.00173 µM.

On to `Cc1c(-c2cn(C(C)C)c3cc(Nc4ccnc(-c5cnn(S(=O)(=O)C6CC6)c5)n4)ncc23)cnn1CCO` [Example 438, 2-(4-(6-(2-(1-(cyclopropylsulfonyl)-1H-pyrazol-4-yl)pyrimidin-4-ylamino)-1-isopropyl-1H-pyrrolo[3,2-c]pyridin-3-yl)-5-methyl-1H-pyrazol-1-yl)ethanol], for which the Ki stood at 0.00121 µM.

Regarding `CC(C)n1cc(-c2cnn(C(CO)CO)c2)c2cnc(Nc3ccnc(-c4cnn(S(=O)(=O)C5CC5)c4)n3)cc21` [Example 439, 2-(4-(6-(2-(1-(cyclopropylsulfonyl)-1H-pyrazol-4-yl)pyrimidin-4-ylamino)-1-isopropyl-1H-pyrrolo[3,2-c]pyridin-3-yl)-1H-pyrazol-1-yl)propane-1,3-diol], the Ki amounted to 0.000946 µM.

With `CC(C)n1cc(-c2cnn(CC3(O)COC3)c2)c2cnc(Nc3ccnc(-c4cnn(S(=O)(=O)C5CC5)c4)n3)cc21` [Example 440, 3-((4-(6-(2-(1-(cyclopropylsulfonyl)-1H-pyrazol-4-yl)pyrimidin-4-ylamino)-1-isopropyl-1H-pyrrolo[3,2-c]pyridin-3-yl)-1H-pyrazol-1-yl)methyl)oxetan-3-ol], the Ki was determined as 0.00123 µM.

For `CC(C)n1cc(-c2cnn(C3COC3)c2)c2cnc(Nc3ccnc(-c4cnn(S(=O)(=O)C5CC5)c4)n3)cc21` [Example 441, N-(2-(1-(cyclopropylsulfonyl)-1H-pyrazol-4-yl)pyrimidin-4-yl)-1-isopropyl-3-(1-(oxetan-3-yl)-1H-pyrazol-4-yl)-1H-pyrrolo[3,2-c]pyridin-6-amine], the Ki was 0.00201 µM.
